Laboratory results published in patent publication US4713369A, “Oligopeptidylargininol derivatives and their homologs, a process for their preparation, their use and agents containing them” (Behringwerke Aktiengellschaft, priority 1985, dated 1987).

Molecular target: human α-thrombin (Homo sapiens, UniProt P00734)
Conditions: read-out: final concentration at which 50% inhibition was reached; human α-thrombin 0.28 UI, tris buffer pH 8.2, 37° C., 5 min incubation, extinction at 405 nm

**Q.** For `N=C(N)NCCC[C@@H](CO)NC(=O)[C@@H]1CCCN1C(=O)[C@H](N)Cc1ccccc1.O=C(O)C(F)(F)F.O=C(O)C(F)(F)F` [D-Phe-Pro-argininol ditrifluoroacetate, D-Phe-Pro-Arg-CH2 OH×2CF3 COOH], which IC50 is on record?
**A.** 150 ± 10 nM
